Assay results from patent publication US20210253716A1 (Regeneron, published 2021).

Experiments:
[1] = molecular target: T1, human ACVR1 extracellular domain expressed with a C-terminal myc-myc-hexahistidine tag (human); assay: SPR (Biacore), mAb captured, 25 C
T1 construct: also called hACVR1-MMH
T1 chain: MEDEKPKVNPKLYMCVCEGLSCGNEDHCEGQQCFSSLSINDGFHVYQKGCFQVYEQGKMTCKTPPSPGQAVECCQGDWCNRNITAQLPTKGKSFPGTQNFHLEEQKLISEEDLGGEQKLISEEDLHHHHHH
Protocol: (§1) Equilibrium dissociation constants (KD) for ACVR1 binding to purified anti-ACVR1 monoclonal antibodies were determined using a real-time surface plasmon resonance biosensor (SPR-Biacore), Biacore 4000. All binding studies were performed in 10 mM HEPES, 150 mM NaCl, 3 mM EDTA, and 0.05% v/v surfactant Tween-20, pH 7.4 (HBS-ET) running buffer at 25° C. and 37° C. The Biacore CM5 sensor surface was first derivatized by amine coupling with a monoclonal mouse anti-human Fc antibody (GE, #BR-1008-39 or REGN2567) to capture anti-ACVR1 monoclonal antibodies. […] ACVR1 reagents were then injected over anti-human Fc captured anti-ACVR1 monoclonal antibody surface for 2.5-3 minutes at a flow rate of 30 μL/minute, while the dissociation of monoclonal antibody bound ACVR1 reagent was monitored for 10-15 minutes in HBS-ET running buffer. Kinetic association rate constant (kₐ) and dissociation rate constant (kd) were determined by fitting the real-time sensorgrams to a 1:1 binding model using Scrubber 2.0c curve-fitting software. Binding dissociation equilibrium constants (KD) and dissociative half-lives (t½) were calculated from the kinetic rate constants as: […]

[2] = molecular target: T2, mouse ACVR1 extracellular domain expressed with a C-terminal myc-myc-hexahistidine tag (mouse); assay: SPR (Biacore), mAb captured, 25 C
T2 construct: also called mACVR1-MMH; mACVR1-mmh
T2 chain: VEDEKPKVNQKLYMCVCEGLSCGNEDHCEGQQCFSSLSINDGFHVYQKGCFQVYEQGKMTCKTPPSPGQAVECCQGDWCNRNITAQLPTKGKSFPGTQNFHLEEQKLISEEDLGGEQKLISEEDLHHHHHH
Protocol: as §1

[3] = molecular target: T3, human ACVR1 extracellular domain expressed with a C-terminal mouse IgG2a Fc tag (human); assay: SPR (Biacore), mAb captured, 25 C
T3 construct: also called hACVR1-mFc
T3 chain: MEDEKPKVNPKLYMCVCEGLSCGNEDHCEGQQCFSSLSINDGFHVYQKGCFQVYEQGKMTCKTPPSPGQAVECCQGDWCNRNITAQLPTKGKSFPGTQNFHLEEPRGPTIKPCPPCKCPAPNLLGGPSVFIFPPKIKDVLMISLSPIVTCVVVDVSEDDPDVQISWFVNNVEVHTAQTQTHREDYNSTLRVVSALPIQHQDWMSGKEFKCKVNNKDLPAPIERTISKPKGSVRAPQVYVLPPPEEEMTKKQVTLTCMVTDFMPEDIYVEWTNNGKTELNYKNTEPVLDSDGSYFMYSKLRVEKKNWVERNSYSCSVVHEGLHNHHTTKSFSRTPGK
Protocol: as §1

[4] = molecular target: T4, full length human ACVR1 (R206H) on HEK293/BRE-luc/hACVR1-R206H-clone H2 cells (human, UniProt Q04771 21-509); assay: flow cytometry, 70 nM antibody, HEK293/hACVR1-R206H cells
T4 construct: also called HEK293/hACVR1-R206H
T4 sequence: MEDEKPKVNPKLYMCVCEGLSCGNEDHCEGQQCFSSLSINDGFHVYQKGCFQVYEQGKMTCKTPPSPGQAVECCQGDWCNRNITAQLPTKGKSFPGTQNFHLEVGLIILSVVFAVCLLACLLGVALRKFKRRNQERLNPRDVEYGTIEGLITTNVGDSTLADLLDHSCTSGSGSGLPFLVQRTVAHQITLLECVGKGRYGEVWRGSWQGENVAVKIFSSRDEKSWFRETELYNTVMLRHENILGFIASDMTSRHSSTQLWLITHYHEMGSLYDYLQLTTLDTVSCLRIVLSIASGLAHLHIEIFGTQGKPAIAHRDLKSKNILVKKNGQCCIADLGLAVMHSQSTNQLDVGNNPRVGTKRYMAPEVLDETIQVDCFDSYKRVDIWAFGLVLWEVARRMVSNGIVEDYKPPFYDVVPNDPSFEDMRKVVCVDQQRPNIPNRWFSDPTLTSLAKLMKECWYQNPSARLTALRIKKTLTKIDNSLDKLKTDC
Protocol: To assess binding of the anti-ACVR1 antibodies of the invention to the receptor expressed on the cell surface, either 66.6 nM or 70 nM of the antibodies were incubated with 0.5×10⁶ cells/well at 4° C. for 30 minutes in PBS (without calcium and magnesium) containing 2% FBS. […] Cells were fixed using BD CytoFix™ (Becton Dickinson, #554655) and analyzed on either Hypercyt® or IQue® Flow Cytometers (Intellicyt®). Unstained and secondary antibody alone controls were also tested for all cell lines. The results were analyzed using ForeCyt® (IntelliCyt®) software to determine the geometric means of fluorescence for viable cells and binding ratios were calculated by normalizing the geometric mean value of the test condition by the geometric mean value of the corresponding unstained cells.

[5] = molecular target: T1, human ACVR1 extracellular domain …; assay: SPR (Biacore), mAb captured, 37 C
Protocol: as §1

[6] = molecular target: T2, mouse ACVR1 extracellular domain …; assay: SPR (Biacore), mAb captured, 37 C
Protocol: as §1

[7] = molecular target: T3, human ACVR1 extracellular domain …; assay: SPR (Biacore), mAb captured, 37 C
Protocol: as §1

[8] = molecular target: T4, full length human ACVR1 (R206H) on …; assay: cell-based or functional assay

900 nM or 100 nM Ag Bound (RU) [1]: 23 RU | Kd [1]: 291 nM | koff [1]: 0.0745 s⁻¹ | kon [1]: 256000 M⁻¹ s⁻¹ | t½ [1]: 0.16 min | 900 nM or 100 nM Ag Bound (RU) [2]: 1 RU | binding result [2]: no binding (tested: 900 nM or 100 nM) | 100 nM Ag Bound (RU) [3]: 170 RU | Kd [3]: 1.52 nM | koff [3]: 0.000493 s⁻¹ | kon [3]: 324000 M⁻¹ s⁻¹ | t½ [3]: 23 min | MFI - Normalized to Unstained Control [4]: 954 fold | 900 nM or 100 nM Ag Bound (RU) [5]: 22 RU | Kd [5]: 362 nM | koff [5]: 0.18 s⁻¹ | kon [5]: 496000 M⁻¹ s⁻¹ | t½ [5]: 0.06 min | 900 nM or 100 nM Ag Bound (RU) [6]: 4 RU | 100 nM Ag Bound (RU) [7]: 197 RU | Kd [7]: 4.31 nM | koff [7]: 0.00196 s⁻¹ | kon [7]: 454000 M⁻¹ s⁻¹ | t½ [7]: 6 min | % Inhibition, BRE-luc reporter, 2 nM hBMP7 [8]: 90% | IC50 [M], BRE-luc reporter, 2 nM hBMP7 [8]: 5.8e-10 M
B1: mAb27396 (antibody, human IgG4 S228P, kappa, V domains shown)
VH: QVHLVESGGGVVQPGRSLRLSCAASGFTFSNYGIHWVRQVPGKGLEWVAVISYDGNNKYYGDSVKGRFTISRDNSKNTLYLQMNSLRPEDTAIYYCAKDRGLDTAGDYFDYWGQGTLVTVSS
VL: EIVMTQSPATLSVSTGERATLSCRASQNISSKLAWYQQKPGQAPRLLIYGASTRASGIPARFWGSGSGTEFTLTISSLQSEDFAVFYCLQYNNWWTFGQGTKVEIKR
